For the series the following is noted: one drop on an anvil, struck with a hammer.

Take isethionic nitrate: the “detonation on hammer strike” value is listed as “unable to obtain a detonation after many attempts”.

Values taken from patent publication US20060293384A1, “Isethionyl nitrates and compounds thereof” (published 2006).
